Compound activity (PubChem BioAssay)
pCIP destab: compounds decreasing mouse p/CIP protein stability; Q05BA5; F442A p/CIP-EGFP cells, EGFP fluorescence, 16 h; decrease of EGFP signal, % at 10 µM; hit rate 0.01% among 290,000;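 active means EGFP signal decrease of at least 30% at 10 µM or well 3 SD below plate mean, unless failing retest; inactive means the rest, including hits failing retest or dose response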
PKA-R2B activ: PKA-R2B complex activation; AID 504700; P22694+P31323; activation, % at 11.4 µM; hit rate 0.079% among 340,000; PKA-R2B holoenzyme dissociation, Cy5-IP20 fluorescence polarization; R2B truncated from residue 108, S112A mutant; 0% DMSO only, 100% 113 µM cGMP;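 active means activation above a cutoff set at the mean over all compounds plus 3 SD, cut at about 18% in these data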;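 further: higher means more holoenzyme dissociation and a rise in polarization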
ABCB6 inh 2: human ABCB6 transporter inhibition | AID 602162 | fluorescence ratio to DMSO, % at 10 µM | Q9NP58 | K562-ABCB6 porphyrin accumulation, flow cytometry, 1 h; active compounds read low | hit rate 0.19% among 360,000;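 active means fluorescence ratio to DMSO below 75%, the collection mean minus 3 SD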;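 further: signal is porphyrin accumulated inside mitochondria; lower ratio means ABCB6 inhibition with less porphyrin fluorescence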
Yeast UUG start: modulators of yeast start codon fidelity, primary screen, whole organism, S. cerevisiae, single point, plate reader | AID 602363, 2012 | actives 0.13% (n = 350,000) | activity score, % at 18.7 µM | S. cerevisiae UUG-firefly luciferase reporter, luminescence/redox ratio;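 active means replicate mean at a twofold rise or more, about +100% in these data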;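 further: firefly luciferase made from a UUG start codon reports start codon fidelity; reporter light over untreated wells divided by growth signal over untreated wells; some hits fall short of that in this replicate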
Granule exo inh: lytic granule exocytosis inhibition; TALL-104 LAMP-1 surface exposure, flow cytometry; cells stimulated with thapsigargin and PMA; inhibition, % at 10 µM; hit rate 0.66% among 360,000; AID 651702;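 active means inhibition above about 55%, limit read from the data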
PKA-R1A act: activators of PKA-R1A complex. P00514+P68181. PKA-R1A dissociation, Cy5-IP20 fluorescence polarization; scaled: DMSO 0%, 113 µM cGMP 100%. activation, % at 11.4 µM. hit rate 0.083% among 340,000;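 active means percent activation above the mean of all tested compounds plus 3 SD, cut at about 19% in these data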;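 further: higher means more PKAc released from R1A so a rise in polarization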
Granule exo CP1: lytic granule exocytosis inhibition; TALL-104 cells, LAMP-1 externalization, flow cytometry; stimulated with PMA plus thapsigargin; hit rate 11% among 1,500; inhibition, % at 10 µM; shares compounds with Granule exo inh; AID 651954; in the data active means inhibition above about 60%
Numbers stand for hits; 0 = inactive; - = no result given; ! = not active in a repeat. Rows were chosen to be rich in hits. Some 0.94% of all compounds tested hit in one or more screens of this group.

SMILES | pCIP destab | PKA-R2B activ | ABCB6 inh 2 | Yeast UUG start | Granule exo inh | PKA-R1A act | Granule exo CP1
O=C(Nc1nc(-c2ccc(S(=O)(=O)N3CCOCC3)cc2)cs1)c1ccccc1 | 0 | 0 | 0 | - | 0 | 0 | -
C[C@@H]1CN([C@@H](C)CO)C(=O)c2cc(NC(=O)Cn3cnnn3)ccc2O[C@@H]1CN(C)S(C)(=O)=O | - | - | - | 0 | - | - | -
O=C(CCS(=O)(=O)c1ccccc1)N1CCCc2ccccc21 | 0 | 0 | 0 | 0 | 74 | 0 | 0
O=C(CCC(=O)N1CCCc2ccccc21)N1CCN(S(=O)(=O)c2ccccc2)CC1 | 0 | 0 | 0 | 0 | 0 | 0 | -
CO[C@@H]1CN(C)C(=O)c2ccc(NC(=O)C3CC3)cc2OC[C@H](C)N(C(=O)c2cnccn2)C[C@H]1C | - | - | - | 0 | - | - | -
O=C(/C=C/c1ccccc1)N1CCC[C@H]1CO | 0 | 0 | 0 | 0 | 0 | 0 | -
CCC(C)(O)C(=O)N[C@H]1CCCN1C(=O)/C=C/c1ccccc1 (stereo partly drawn) | - | 0 | 0 | 0 | 59 | 0 | 0
Cc1cc(N2CCN(c3ccccc3)CC2)nc2ccccc12 | 0 | 0 | 0 | 0 | 89 | 0 | 0
CCC(=O)Nc1ccc2c(c1)C(=O)N(C)[C@H]1CC[C@@H](CC(=O)NCc3ccccc3Cl)O[C@H]1CO2 | - | - | - | 0 | - | - | -
COc1ccc(C#Cc2cnc3c(c2)C(=O)N([C@H](C)CO)C[C@H](C)[C@H](CN(C)S(=O)(=O)c2ccc(C#N)cc2)O3)cc1OC | - | - | - | 0 | - | - | -
COc1ccc(C2(C)NC(=O)N(CC(=O)c3cc(C)n(C4CC4)c3C)C2=O)cc1 (stereo not drawn) | - | 0 | 0 | 0 | 0 | 0 | -
Cc1cc(C(=O)CN2C(=O)NC(C)(c3ccc(F)c(F)c3)C2=O)c(C)n1C1CC1 (stereo not drawn) | - | 0 | 0 | 0 | 60 | 0 | 0
Cc1ccccc1CNC(=O)C1CCCN(c2nnc(C)c3c(C)n(-c4ccccc4)nc23)C1 (stereo not drawn) | 0 | 0 | 0 | 0 | 74 | 0 | 0
Cc1nnc(N2CCCC(C(=O)NCc3cccc(F)c3)C2)c2nn(-c3ccccc3)c(C)c12 (stereo not drawn) | 0 | 0 | 0 | 0 | 0 | 0 | -
CCc1ccc(CNC(=O)C2CCCN(c3nnc(C)c4c(C)n(-c5ccccc5)nc34)C2)cc1 (stereo not drawn) | 0 | 0 | 0 | 0 | 58 | 0 | 87
Cc1ccc(-n2nc3c(N4CCC(C(=O)NCc5ccccc5C)CC4)nnc(C)c3c2C)cc1 | 0 | 0 | 0 | 0 | 0 | 0 | -
CCOc1ccccc1CNC(=O)C1CCN(c2nnc(C)c3c(C)n(-c4ccc(C)cc4)nc23)CC1 | 0 | 0 | 0 | 0 | 58 | 0 | 89
CSc1ncc(Cl)c(C(=O)Nc2cccnc2)n1 | 0 | 0 | 0 | 0 | 79 | 0 | 0
CCCN1C[C@H](C)[C@H](OC)CN(C)C(=O)c2cc(NC(=O)NC3CCCCC3)ccc2OC[C@H]1C | - | - | - | 0 | - | - | -
COc1ccc(NC(=O)N(C)C[C@H]2Oc3ccc(NC(=O)Nc4ccc(C(F)(F)F)cc4)cc3CC(=O)N([C@@H](C)CO)C[C@@H]2C)cc1 | - | - | - | 0 | - | - | -
COc1ccc(NC(=O)CC2Nc3cccc4cccc(c34)NC2=O)cc1 (stereo not drawn) | 0 | 0 | 0 | - | 61 | 0 | 0
O=C(CC1Nc2cccc3cccc(c23)NC1=O)Nc1ccc(F)cc1 (stereo not drawn) | 0 | 0 | 0 | 0 | 0 | 0 | -
CCN(CC)c1ccc2cc(-c3nc(-c4cc5ccccc5oc4=O)cs3)c(=O)oc2c1 | - | 0 | 0 | 0 | 81 | 0 | 0
CC1CCCN(S(=O)(=O)c2ccc(NC(=O)CNC3CCCC3)cc2)C1 (stereo not drawn) | 0 | 0 | 0 | 0 | 0 | 0 | -
O=C(CNC1CCCCC1)Nc1ccc(S(=O)(=O)N2CCCCC2)cc1 | 0 | 0 | 0 | 0 | 78 | 0 | 0
SMILES | pCIP destab | PKA-R2B activ | ABCB6 inh 2 | Yeast UUG start | Granule exo inh | PKA-R1A act | Granule exo CP1
CCC(=O)Nc1nonc1-c1nc2ccccc2n1CCC(C)C | 0 | 0 | 0 | 0 | 63 | 0 | 0
CC(=O)Nc1nonc1-c1nc2ccccc2n1CCC(C)C | 0 | 0 | 0 | 0 | 0 | 0 | -
CCCCN(CC(O)COc1cccc(C)c1)CC(O)COc1cccc(C)c1 (stereo not drawn) | 0 | 0 | 0 | 0 | 83 | 0 | 0
CCc1cccc2c(C(=O)C(NCCOC)c3ccccc3)c[nH]c12 (stereo not drawn) | 0 | 0 | 0 | 0 | 66 | 0 | 0
CCN1CCN(Cc2ccc(NC(=O)c3ccc(C)c(NC(=O)C[C@@H]4NC(=O)[C@H](Cc5ccccc5)NC4=O)c3)cc2C(F)(F)F)CC1 | 0 | 0 | 0 | 0 | 76! | 0 | 0
Cc1cccc(/C=C/c2nc3ccccc3c(=O)[nH]2)c1 | 0 | 0 | 0 | - | 0 | 0 | -
Cc1[nH]c2ccccc2c1/C=C/c1nc2ccccc2c(=O)[nH]1 | 0 | 0 | 0 | 0 | 58 | 0 | 0
Cc1ccccc1S(=O)(=O)N1C[C@@H](O)COC[C@H]2O[C@@H](CC(=O)N3CCC(Cc4ccccc4)CC3)CC[C@@H]21 | - | - | - | 0 | - | - | -
Clc1ccc(CNc2ccc(N3CCN(Cc4ccccc4)CC3)cc2)cc1 | 0 | 0 | 0 | 0 | 67 | 0 | 0
Fc1ccc(CNC2CCN(Cc3ccccc3)CC2)cc1 | 0 | 0 | 0 | 0 | 62 | 0 | 0
Clc1ccc(CNC2CCN(Cc3ccccc3)CC2)cc1 | 0 | 0 | 0 | 0 | 67 | 0 | 0
c1ccc(CNc2ccc(N3CCOCC3)cc2)cc1 | - | 0 | 0 | 0 | 0 | 0 | -
COc1cc(NC(=O)c2cccc3c2C(=O)N(C2CCCCC2)C3)cc(OC)c1OC | 0 | 0 | 0 | 0 | 94 | 0 | 0
Cc1cc(C)cc(NC(=O)c2cccc3c2C(=O)N(C2CCCCC2)C3)c1 | 0 | 0 | 0 | 0 | 0 | 0 | -
CC(=O)NC(c1cccs1)c1cc(Cl)c2ccccc2c1O (stereo not drawn) | - | 0 | 0 | 0 | 73 | 0 | 0
CNC[C@@H]1Oc2c(NC(=O)c3cc(C)nn3C)cccc2C(=O)N([C@H](C)CO)C[C@H]1C | - | - | - | 0 | - | - | -
CCCC(=O)Nc1ccc2c(c1)C(=O)N(C)C[C@@H](OC)[C@@H](C)CN(Cc1ccc(-c3ccccn3)cc1)[C@H](C)CO2 | - | - | - | 0 | - | - | -
CC(=O)N1CCSc2ccc(S(=O)(=O)NCCc3ccc(C)cc3)cc21 | 0 | 0 | 0 | 0 | 62 | 0 | 0
CC(=O)N1CCSc2ccc(S(=O)(=O)NCCc3ccc(Cl)cc3)cc21 | 0 | 0 | 0 | 0 | 0 | 0 | -
CN1CCN(C(=O)C[C@@H]2CC[C@H]3[C@@H](COc4ccc(NC(=O)C5CC5)cc4C(=O)N3C)O2)CC1 | - | - | - | 0 | - | - | -
Cc1ccccc1OCC(O)CN(Cc1ccccc1O)C1CCCCC1 (stereo not drawn) | 0 | 0 | 0 | 0 | 68 | 0 | 0
